Measured values reported in article PMC3183106 (Pharmacological research : the official journal of the …, 2011).
Where two headings read alike, the source gives them in different places.

Tests used:
[1] = mean ± SEM
[2] = mean ± SEM; remark: listed apart in the source

C[S+]([O-])CCCCNC(=S)SCC(N)C(=O)O (centres unmarked) [SFN-Cys, SFN-cysteine]
Percent of metabolite relative to total for respective ITC in the plasma ([1]; 12 hrs after broccoli sprouts, GSTP1 A/A (n=7)): 3.44 ± 0.12%
Percent of metabolite relative to total for respective ITC in the plasma ([1]; 12 hrs after broccoli sprouts, GSTP1 A/G (n=5)): 3.67 ± 0.31%
Percent of metabolite relative to total for respective ITC in the plasma ([1]; 12 hrs after broccoli supplement, GSTP1 A/A (n=7)): 3.06 ± 0.18%
Percent of metabolite relative to total for respective ITC in the plasma ([1]; 12 hrs after broccoli supplement, GSTP1 A/G (n=5)): 3.00 ± 0.18%
Percent of metabolite relative to total metabolites for respective ITC in urine ([2]; first 12 hrs after broccoli sprouts, GSTP1 A/A (n=7)): 17.9 ± 1.37%
Percent of metabolite relative to total metabolites for respective ITC in urine ([2]; first 12 hrs after broccoli sprouts, GSTP1 A/G (n=5)): 20.2 ± 2.69%
Percent of metabolite relative to total metabolites for respective ITC in urine ([2]; first 12 hrs after broccoli supplement, GSTP1 A/A (n=7)): 14.1 ± 1.06%
Percent of metabolite relative to total metabolites for respective ITC in urine ([2]; first 12 hrs after broccoli supplement, GSTP1 A/G (n=5)): 16.5 ± 0.50%
